Values of other authors in publication PMC5302413, “Bifunctional peptide-based opioid agonist/nociceptin antagonist ligand for dual treatment of nociceptive and neuropathic pain” (Pain, 2016).

System: rat model of neuropathic pain
Conditions: IV, cited from earlier work

CN(C)[C@]1(c2ccccc2)CC[C@]2(CC1)OCCc1c3cc(F)ccc3[nH]c12
ED50 in rat model of neuropathic pain, converted (corresponding to 0.8 μg/kg): 0.002 µmol/kg
ED50 in rat model of neuropathic pain: 0.8 µg/kg
